Data published in ChEMBL document CHEMBL1133964, “Synthesis and biological data of 4-amino-1-(2-chloro-2-phenylethyl)-1H-pyrazolo[3,4-b]pyridine-5-carboxylic acid ethyl esters, a new series of A1-adenosine receptor (A1AR) ligands” (Bioorg Med Chem Lett, 2001).

Columns and labels:
[1] = system: Adenosine receptor A2a (Bos taurus); assay: Percent inhibition of [3H]CGS-21680 binding to A2A adenosine receptor of bovine striatal membrane at 10 uM
[2] = system: Adenosine receptor A3 (Bos taurus); assay: Percent inhibition of [125I]AB-MECA binding at Adenosine A3 receptor in bovine cortical membrane at 10 uM

| SMILES | inhibition [1] [%] | inhibition [2] [%] |
| --- | --- | --- |
| CCOCCNc1c(C(=O)OCC)cnc2c1cnn2CC(Cl)c1ccccc1 (stereo not drawn) | 2 | – |
| CCOC(=O)c1cnc2c(cnn2CC(Cl)c2ccccc2)c1NC(C)(C)C (stereo not drawn) | 19 | – |
| CCCNc1c(C(=O)OCC)cnc2c1cnn2CC(Cl)c1ccccc1 (stereo not drawn) | 11 | 23 |
| CCOC(=O)c1cnc2c(cnn2CC(Cl)c2ccccc2)c1NCCc1ccccc1 (stereo not drawn) | 4 | 34 |
| CCOC(=O)c1cnc2c(cnn2CC(Cl)c2ccccc2)c1N1CCCC1 (stereo not drawn) | 17 | 0 |
